Test [1] addresses T1, human opioid receptor-like (ORL-1) (Homo sapiens, UniProt P41146). Nature of the test: In vitro ORL-1 receptor [35S]GTPγS functional assay. Type of test: biochemical. Conditions: procedure of Example 38; for EC50: read-out: GTPγS ORL-1 EC50 [mean ± SEM]. For orientation: GTPγS is a poorly hydrolysed GTP analogue; its binding reports G protein activation.
The target of test [2] is T1, human opioid receptor-like (ORL-1). The test can be described thus: In vitro ORL-1 receptor binding assay ([3H]-nociceptin displacement). Conditions: read-out: Ki [Average ± Std Deviation] ORL-1; binding to ORL-1 receptor, procedure of Example 37.
The next test has as its target human μ-opioid receptor (Homo sapiens, UniProt P35372). The test can be described thus: In vitro mu-opioid receptor binding assay ([3H]-diprenorphine displacement). Conditions: read-out: Ki [Average ± Std Deviation] Opioid Receptor Mu; binding to mu-opioid receptor, procedure of Example 39.

Molecules are shown by their SMILES.

A word on the EC50: it is the concentration that produces a half-maximal response. By Ki is commonly meant the dissociation constant of the complex between target and ligand, obtained from inhibition or displacement. Turning to `CC1(C)[C@H]2CC[C@@H](CCN3[C@@H]4CCC[C@H]3C[C@@H](n3c(=O)c(-c5cccc(=O)n5CC(=O)O)nc5ccccc53)C4)[C@@H]1C2`, in test [1], the “GTPγS ORL-1 Emax [mean ± SEM]” value is 91 ± 8% and the EC50 was found to be 26.7 nM. Also, the Ki in test [2] was determined as 4.7 nM.

With `C[C@@H]1C[C@@H]2C[C@H](C1)C[C@@H](N1[C@@H]3CCC[C@H]1C[C@@H](n1c(=O)c(-c4ccc[nH]c4=O)nc4ccccc41)C3)C2`, the inhibition constant (Ki) on human μ-opioid receptor was 33 nM. Further, in test [1], the “GTPγS ORL-1 Emax [mean ± SEM]” value is on record as 87.7 ± 1.9% and the EC50 was 2.08 nM. The Ki in test [2] turned out to be 1.36 nM.

In the case of `O=C(O)Cn1c(-c2nc3ccccc3n(C3CC4CCCC(C3)N4C3CC4CCCC(C4)C3)c2=O)n[nH]c1=O` (stereo not shown), in test [1], the “GTPγS ORL-1 Emax [mean ± SEM]” value came to 20.3 ± 1.9% and the EC50 is 47.6 nM. The inhibition constant Ki in test [2] stood at 6.93 nM.

Turning to `O=C(O)c1c[nH]c(=O)c(-c2nc3ccccc3n([C@H]3C[C@H]4CCC[C@@H](C3)N4[C@H]3C[C@@H]4CCC[C@@H](C4)C3)c2=O)c1`, in test [1], the “GTPγS ORL-1 Emax [mean ± SEM]” value is recorded as 23.7 ± 0.7% and the EC50 is 5.2 nM. Also, the Ki in test [2] was 7.7 nM.

In the case of `O=C(O)c1cc(-c2nc3ccccc3n(C3CC4CCCC(C3)N4C3CC4CCCC(C4)C3)c2=O)c[nH]c1=O` (stereo not shown), in test [1], the “GTPγS ORL-1 Emax [mean ± SEM]” value is 18.0 ± 1.1% and the EC50 stood at 1.08 nM. Further, in test [2], the Ki came out at 1.52 nM.

In the case of `O=C1NCCN1c1nc2ccccc2n([C@H]2C[C@H]3CCC[C@@H](C2)N3[C@H]2C[C@@H]3CCC[C@@H](C3)C2)c1=O`, in test [1], the “GTPγS ORL-1 Emax [mean ± SEM]” value is reported as 15.3 ± 1.2% and the concentration for a half-maximal effect (EC50) was found to be 0.55 nM. The Ki in test [2] is 1.67 nM.

Consider `O=c1[nH]c(=O)n(-c2nc3ccccc3n([C@H]3C[C@H]4CCC[C@@H](C3)N4[C@H]3C[C@@H]4CCC[C@@H](C4)C3)c2=O)cc1F`, for which, in test [1], the “GTPγS ORL-1 Emax [mean ± SEM]” value is given as 9.7 ± 0.9% and the half-maximal effective concentration (EC50) worked out at 42.9 nM. Also, the Ki in test [2] turned out to be 5.07 nM.

Consider `O=c1[nH]cccc1-c1nc2ccccc2n([C@H]2C[C@H]3CCC[C@@H](C2)N3[C@@H]2C[C@@H]3CCCC[C@@H](C3)C2)c1=O`, for which, in test [1], the “GTPγS ORL-1 Emax [mean ± SEM]” value is 21.7 ± 2.3% and the EC50 came to 2.96 nM. Moreover, the Ki in test [2] came out at 0.55 nM.

`O=c1[nH]cccc1-c1nc2ccccc2n([C@H]2C[C@H]3CC[C@@H](C2)N3[C@@H]2C[C@@H]3CCCC[C@@H](C3)C2)c1=O`: in test [1], the “GTPγS ORL-1 Emax [mean ± SEM]” value stood at 23.7 ± 0.9% and the EC50 worked out at 8 nM. Further, the Ki in test [2] amounted to 1.37 nM.

Consider `Nc1nc(=O)n(-c2nc3ccccc3n([C@H]3C[C@H]4CCC[C@@H](C3)N4[C@H]3C[C@@H]4CCC[C@@H](C4)C3)c2=O)cc1F` [B7a(i), 1-((1R,1′R,3r,3′R,5S,5′S)-[3,9′-bi(9′-azabicyclo[3.3.1]nonan)]-3′-yl)-3-(4-amino-5-fluoro-2-oxopyrimidin-1(2H)-yl)quinoxalin-2(1H)-one], for which, in test [1], the “GTPγS ORL-1 Emax [mean ± SEM]” value is listed as 18 ± 1% and the EC50 was 22.5 nM. The inhibition constant Ki in test [2] stood at 3 nM.

`O=C(O)Cn1c(-c2nc3ccccc3n([C@H]3C[C@H]4CCC[C@@H](C3)N4C3CCCCCCCCC3)c2=O)cccc1=O` [BB1c(iii), 2-(6-(4-((1R,3r,5S)-9-cyclodecyl-9-azabicyclo[3.3.1]nonan-3-yl)-3-oxo-3,4-dihydroquinoxalin-2-yl)-2-oxopyridin-1(2H)-yl)acetic acid]: in test [2], the Ki came to 7.1 nM.

As to `O=c1[nH]c(=O)n(-c2nc3ccccc3n([C@H]3C[C@H]4CCC[C@@H](C3)N4[C@H]3C[C@@H]4CCC[C@@H](C4)C3)c2=O)cc1Br` [Compound B16a, 1-(4-((1R,1′R,3r,3R,5S,5′S)-[3,9′-bi(9′-azabicyclo[3.3.1]nonan)]-3′-yl)-3-oxo-3,4-dihydroquinoxalin-2-yl)-5-bromopyrimidine-2,4(1H,3H)-dione], in test [1], the “GTPγS ORL-1 Emax [mean ± SEM]” value was 14.3 ± 1.7% and the EC50 is 11.9 nM. Moreover, in test [2], the inhibitory constant (Ki) worked out at 6.37 nM.

Take `C[C@@H]1C[C@@H]2C[C@H](C1)C[C@@H](N1[C@@H]3CCC[C@H]1C[C@@H](n1c(=O)c(-n4ncc(=O)[nH]c4=O)nc4ccccc41)C3)C2` [Compound B34a, 2-(4-((1R,1′R,3r,3′R,5S,5′S,7S)-7-methyl-[3,9′-bi(9′-azabicyclo[3.3.1]nonan)]-3′-yl)-3-oxo-3,4-dihydroquinoxalin-2-yl)-1,2,4-triazine-3,5(2H,4H)-dione]: in test [1], the “GTPγS ORL-1 Emax [mean ± SEM]” value stood at 21.3 ± 2.7% and the EC50 was 3.9 nM. The inhibition constant Ki in test [2] amounted to 2.26 nM.

Take `Cc1nn(-c2nc3ccccc3n([C@H]3C[C@H]4CCC[C@@H](C3)N4[C@@H]3C[C@@H]4CCCC[C@@H](C4)C3)c2=O)c(=O)[nH]c1=O` [Compound O10b, 2-(4-((1R,3R,5 S)-9-((1R,6S,8s)-bicyclo[4.3.1]decan-8-yl)-9-azabicyclo[3.3.1]nonan-3-yl)-3-oxo-3,4-dihydroquinoxalin-2-yl)-6-methyl-1,2,4-triazine-3,5(2H,4H)-dione]: in test [1], the “GTPγS ORL-1 Emax [mean ± SEM]” value is recorded as 14.3 ± 2.0% and the EC50 was 17.1 nM. The inhibition constant Ki in test [2] was determined as 4.06 nM.

For `CC1(C)NC(=O)N(c2nc3ccccc3n([C@H]3C[C@H]4CCC[C@@H](C3)N4[C@@H]3C[C@@H]4CCCC[C@@H](C4)C3)c2=O)C1=O` [Compound O22b, 3-(4-((1R,3R,5S)-9-((1R,6S,8s)-bicyclo[4.3.1]decan-8-yl)-9-azabicyclo[3.3.1]nonan-3-yl)-3-oxo-3,4-dihydroquinoxalin-2-yl)-5,5-dimethylimidazolidine-2,4-dione], in test [1], the “GTPγS ORL-1 Emax [mean ± SEM]” value was determined as 23.3 ± 1.2% and the EC50 amounted to 8 nM. The Ki in test [2] was determined as 2.4 nM.

On to `O=C(O)Cn1cc(-c2nc3ccccc3n([C@H]3C[C@H]4CCC[C@@H](C3)N4[C@H]3C[C@@H]4CCC[C@@H](C4)C3)c2=O)ccc1=O` [Compound U007, 2-(5-(4-((1R,1′R,3r,3′R,5S,5′S)-[3,9′-bi(9′-azabicyclo[3.3.1]nonan)]-3′-yl)-3-oxo-3,4-dihydroquinoxalin-2-yl)-2-oxopyridin-1(2H)-yl)acetic acid], for which, in test [1], the “GTPγS ORL-1 Emax [mean ± SEM]” value is on record as 19 ± 2% and the concentration for a half-maximal effect (EC50) amounted to 32 nM. In test [2], the Ki stood at 9.16 nM.

Consider `O=C(O)Cn1ccc(-c2nc3ccccc3n([C@H]3C[C@H]4CCC[C@@H](C3)N4[C@H]3C[C@@H]4CCC[C@@H](C4)C3)c2=O)cc1=O` [Compound U010, 2-(4-(4-((1R,1′R,3r,3R,5S,5′S)-[3,9′-bi(9′-azabicyclo[3.3.1]nonan)]-3′-yl)-3-oxo-3,4-dihydroquinoxalin-2-yl)-2-oxopyridin-1(2H)-yl)acetic acid], for which, in test [1], the “GTPγS ORL-1 Emax [mean ± SEM]” value is on record as 16.6 ± 1.4% and the EC50 was 18 nM. For the same molecule, in test [2], the Ki was 12.2 nM.

For the molecule `O=C(O)c1cc(-c2nc3ccccc3n([C@H]3C[C@H]4CCC[C@@H](C3)N4[C@@H]3C[C@@H]4CCCC[C@@H](C4)C3)c2=O)c[nH]c1=O` [Compound U043, 5-(4-((1R,3R,5S)-9-((1R,6S,8s)-bicyclo[4.3.1]decan-8-yl)-9-azabicyclo[3.3.1]nonan-3-yl)-3-oxo-3,4-dihydroquinoxalin-2-yl)-2-oxo-1,2-dihydropyridine-3-carboxylic acid], in test [1], the “GTPγS ORL-1 Emax [mean ± SEM]” value turned out to be 22.3 ± 1.2% and the EC50 was found to be 0.94 nM. For the same molecule, in test [2], the Ki turned out to be 0.23 nM.

For `Cc1cc(=O)[nH]c(=O)n1-c1nc2ccccc2n([C@H]2C[C@H]3CCC[C@@H](C2)N3[C@H]2C[C@@H]3CCC[C@@H](C3)C2)c1=O` [Compound U065, 1-(4-((1R,1R,3r,3′R,5S,5′S)-[3,9′-bi(9′-azabicyclo[3.3.1]nonan)]-3′-yl)-3-oxo-3,4-dihydroquinoxalin-2-yl)-6-methylpyrimidine-2,4(1H,3H)-dione], in test [2], the Ki stood at 8.2 nM.

As for `O=C(O)Cn1cccc(-c2nc3ccccc3n([C@H]3C[C@H]4CCC[C@@H](C3)N4[C@H]3C[C@@H]4CCC[C@@H](C4)C3)c2=O)c1=O` [R15a(iii), 2-(3-(4-((1R,1′R,3r,3′R,5S,5′S)-[3,9′-bi(9′-azabicyclo[3.3.1]nonan)]-3′-yl)-3-oxo-3,4-dihydroquinoxalin-2-yl)-2-oxopyridin-1(2H)-yl)acetic acid], in test [1], the “GTPγS ORL-1 Emax [mean ± SEM]” value is reported as 22 ± 1% and the 50% effective concentration (EC50) was 106 nM. Besides, the Ki in test [2] was 29.5 nM.

For `O=c1[nH]cc(F)cc1-c1nc2ccccc2n([C@H]2C[C@H]3CCC[C@@H](C2)N3[C@H]2C[C@@H]3CCC[C@@H](C3)C2)c1=O` [R16a(i), 1-((1R,1′R,3r,3′R,5S,5′S)-[3,9′-bi(9′-azabicyclo[3.3.1]nonan)]-3′-yl)-3-(5-fluoro-2-oxo-1,2-dihydropyridin-3-yl)quinoxalin-2(1H)-one], the “GTPγS ORL-1 Emax [mean ± SEM]” value in test [1] was found to be 29.3 ± 3.5%.

On to `C[C@@H]1C[C@@H]2C[C@H](C1)C[C@@H](N1[C@@H]3CCC[C@H]1C[C@@H](n1c(=O)c(-c4cc(C(=O)O)c[nH]c4=O)nc4ccccc41)C3)C2` [R28a(i), 5-(4-((1R,1′R,3r,3′R,5S,5′S,7S)-7-methyl-[3,9′-bi(9′-azabicyclo[3.3.1]nonan)]-3′-yl)-3-oxo-3,4-dihydroquinoxalin-2-yl)-6-oxo-1,6-dihydropyridine-3-carboxylic acid], for which, in test [1], the “GTPγS ORL-1 Emax [mean ± SEM]” value stood at 18.5 ± 3.5% and the EC50 is 39.7 nM. Further, the Ki in test [2] amounted to 11.8 nM.

In the case of `CC1(C)[C@H]2CC[C@@H](CCN3[C@@H]4CCC[C@H]3C[C@@H](n3c(=O)c(-c5ccc[nH]c5=O)nc5ccccc53)C4)[C@@H]1C2` [U55a(i), 1-((1R,3S,5S)-9-(2-((1S,2S,5S)-6,6-dimethylbicyclo[3.1.1]heptan-2-yl)ethyl)-9-azabicyclo[3.3.1]nonan-3-yl)-3-(2-oxo-1,2-dihydropyridin-3-yl)quinoxalin-2(1H)-one], in test [1], the “GTPγS ORL-1 Emax [mean ± SEM]” value worked out at 82.8 ± 2.7% and the concentration for a half-maximal effect (EC50) is 12.3 nM. Further, the Ki in test [2] is 2.27 nM.

Values taken from patent publication US9085561B2, “Cyclic urea- or lactam-substituted quinoxaline-type piperidines as ORL-1 modulators” (priority 2012, dated 2015).
